Data reported in patent US20190091281A1, “DELIVERY PHARMACEUTICAL COMPOSITIONS INCLUDING PERMEATION ENHANCERS” (AQUESTIVE THERAPEUTICS, INC., priority 2017, published 2019).

System: frozen buccal tissue

Average flux: 0.25 ug/cm2*min
Substance: Cholesterol amine
